The results in this text go back to patent EP0938471B1, “THE PREPARATION AND USE OF ORTHO-SULFONAMIDO ARYL HYDROXAMIC ACIDS AS MATRIX METALLOPROTEINASE AND TACE INHIBITORS” (priority 1996, dated 1998).

The chains behind the UniProt entries cited, without tags or fusion partners. Residues count along the entry.
UniProt P14780, 94-707: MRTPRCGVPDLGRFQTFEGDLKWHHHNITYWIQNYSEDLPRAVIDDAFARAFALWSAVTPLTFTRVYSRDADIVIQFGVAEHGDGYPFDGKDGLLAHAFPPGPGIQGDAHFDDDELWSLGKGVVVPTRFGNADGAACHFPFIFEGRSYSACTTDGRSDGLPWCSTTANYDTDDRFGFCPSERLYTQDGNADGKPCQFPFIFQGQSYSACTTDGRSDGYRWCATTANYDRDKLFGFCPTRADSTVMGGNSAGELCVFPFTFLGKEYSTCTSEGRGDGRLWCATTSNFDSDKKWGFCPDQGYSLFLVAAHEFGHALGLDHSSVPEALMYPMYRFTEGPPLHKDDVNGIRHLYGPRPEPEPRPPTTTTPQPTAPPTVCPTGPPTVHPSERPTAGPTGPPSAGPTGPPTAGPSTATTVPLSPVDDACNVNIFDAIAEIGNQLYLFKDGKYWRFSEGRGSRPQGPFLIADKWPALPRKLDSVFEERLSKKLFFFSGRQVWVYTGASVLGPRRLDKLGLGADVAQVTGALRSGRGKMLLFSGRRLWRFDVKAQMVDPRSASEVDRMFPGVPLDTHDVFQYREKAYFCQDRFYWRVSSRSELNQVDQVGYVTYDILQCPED
UniProt P78536, 215-824: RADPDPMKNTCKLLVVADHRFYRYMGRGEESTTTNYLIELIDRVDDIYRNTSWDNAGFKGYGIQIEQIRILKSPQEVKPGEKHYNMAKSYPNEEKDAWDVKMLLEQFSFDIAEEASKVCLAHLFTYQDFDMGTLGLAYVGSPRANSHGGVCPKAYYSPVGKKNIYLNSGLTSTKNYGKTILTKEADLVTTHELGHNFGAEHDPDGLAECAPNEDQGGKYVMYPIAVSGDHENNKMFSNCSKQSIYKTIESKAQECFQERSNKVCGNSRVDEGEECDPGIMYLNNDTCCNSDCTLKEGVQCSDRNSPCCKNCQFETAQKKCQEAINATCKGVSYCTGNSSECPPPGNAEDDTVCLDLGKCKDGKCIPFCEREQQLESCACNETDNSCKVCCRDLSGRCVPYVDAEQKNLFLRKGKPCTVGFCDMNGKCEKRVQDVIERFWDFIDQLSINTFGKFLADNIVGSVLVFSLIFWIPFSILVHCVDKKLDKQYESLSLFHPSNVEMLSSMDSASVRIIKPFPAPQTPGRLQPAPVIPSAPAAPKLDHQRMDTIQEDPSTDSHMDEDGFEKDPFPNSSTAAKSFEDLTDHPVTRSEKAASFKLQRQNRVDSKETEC

Structures can show the parent of a compound that is named as a salt. Where two headings read alike, the source gives them in different places.

What all share (assay type): biochemical
Assay [1] has as its target MMP-9 (Homo sapiens, UniProt P14780). In words: MMP-9 inhibition (thiopeptide or fluorescent peptide substrate assay).
In assay [2] the target is MMP-13 (Homo sapiens, UniProt P45452). Briefly: MMP-13 inhibition (thiopeptide or fluorescent peptide substrate assay). The note with it: read-out: MMP-13 IC50.
In assay [3] the target is TACE (Homo sapiens, UniProt P78536). In words: TACE inhibition (fluorescent peptidyl substrate).
Assay [4] addresses T1, MMP-1 (Homo sapiens, UniProt P03956).
T1 sequence (P03956 100-469): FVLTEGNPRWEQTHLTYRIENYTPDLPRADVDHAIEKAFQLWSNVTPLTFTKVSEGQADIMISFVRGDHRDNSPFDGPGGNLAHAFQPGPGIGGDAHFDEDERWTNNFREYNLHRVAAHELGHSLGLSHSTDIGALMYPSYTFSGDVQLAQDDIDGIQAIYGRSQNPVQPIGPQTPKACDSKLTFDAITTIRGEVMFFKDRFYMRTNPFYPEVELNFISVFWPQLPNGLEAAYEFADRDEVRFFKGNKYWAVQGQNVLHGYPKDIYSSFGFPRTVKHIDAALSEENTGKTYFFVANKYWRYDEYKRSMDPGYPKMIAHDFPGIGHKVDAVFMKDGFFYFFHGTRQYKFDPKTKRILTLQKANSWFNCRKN
In words: MMP-1 inhibition (thiopeptide or fluorescent peptide substrate assay).

Consider `COc1ccc(S(=O)(=O)N(Cc2cccnc2)c2c(C)cccc2C(=O)NO)cc1` [Example 61, N-Hydroxy-2-[(4-methoxy-benzenesulfonyl)-pyridin-3-ylmethyl-amino]-3-methyl-benzamide], for which, in assay [1], the half-inhibitory concentration (IC50) (commonly the concentration that gives 50% inhibition) was determined as 34 nM.

On to `COc1ccc(S(=O)(=O)N(Cc2cccnc2)c2c(C)cccc2C(=O)NO)cc1` [Example 83, N-Hydroxy-2-[(4-methoxy-benzenesulfonyl)-pyridin-3-ylmethyl-amino]-3-methyl-benzamide], for which the IC50 in assay [1] is 34 nM; in assay [2] it was 32 nM.

Consider `COc1ccc(S(=O)(=O)N(Cc2ccccc2)c2c(C)cc(C(=O)NO)cc2C(=O)NO)cc1` [Example 272, 4-[Benzyl-(4-methoxy-benzenesulfonyl)-amino]-N(1),N(3)-dihydroxy-5-methyl-isophthalamide di-sodium salt], for which the IC50 in assay [3] came to 311 nM; in assay [4] (read-out: MMP-1 IC50), 66 nM; in assay [1], 0.5 nM; in assay [2] it was 6 nM.

Consider `COc1ccc(S(=O)(=O)N(Cc2ccc(N3CCN(C)CC3)cc2)c2c(C)cccc2C(=O)NO)cc1` [Example 382, N-Hydroxy-2-{(4-methoxy-benzenesulfonyl)-[4-(4-methyl-piperazin-1-yl)-benzyl]-amino}-3-methyl-benzamide], for which, in assay [4], inhibition was half-maximal at 142 nM (IC50).

`COc1ccc(S(=O)(=O)N(Cc2cccnc2)c2c(C)cc(-c3ccccc3)cc2C(=O)NO)cc1` [Example 397, 4-[(4-Methoxy-benzenesulfonyl)-pyridin-3-ylmethyl-amino]-5-methyl-biphenyl-3-carboxylic acid hydroxyamide hydrochloride salt]: in assay [2], the IC50 turned out to be 3.7 nM.

Regarding `COc1ccc(S(=O)(=O)N(Cc2cccnc2)c2c(C)cc(-c3ccsc3)cc2C(=O)NO)cc1` [Example 398, N-Hydroxy-2-[(4-methoxy-benzenesulfonyl)-pyridin-3-ylmethyl-amino]-3-methyl-5-thiophen-3-yl-benzamide hydrochloride salt], the IC50 in assay [2] is 3.7 nM.
